Source: ChEMBL document CHEMBL1124705, “Renin inhibitors containing isosteric replacements of the amide bond connecting the P3 and P2 sites” (J Med Chem, 1990)

By UniProt entry, the sequences of proteins in these tests, tags left out. Where a name states a change or a piece, a line headed by the entry shows the natural chain unless it says otherwise.
UniProt P00797: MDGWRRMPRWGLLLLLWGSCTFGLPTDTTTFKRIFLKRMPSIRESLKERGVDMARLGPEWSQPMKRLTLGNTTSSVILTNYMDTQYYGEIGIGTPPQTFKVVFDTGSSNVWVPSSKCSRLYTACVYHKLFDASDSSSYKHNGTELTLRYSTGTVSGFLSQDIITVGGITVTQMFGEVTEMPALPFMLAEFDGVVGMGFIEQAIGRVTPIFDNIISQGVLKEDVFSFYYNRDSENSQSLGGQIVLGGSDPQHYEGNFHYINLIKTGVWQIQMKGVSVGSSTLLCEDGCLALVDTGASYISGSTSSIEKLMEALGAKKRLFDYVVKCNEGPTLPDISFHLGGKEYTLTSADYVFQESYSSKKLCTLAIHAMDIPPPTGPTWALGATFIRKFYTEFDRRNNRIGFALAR

Target: Renin (Homo sapiens, UniProt P00797)
Experiment: Inhibitory activity against human renin
Method in brief: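 It was incubated 2 h at 37 °C with compound added in DMSO. Angiotensin I generated, linear over this period, was corrected for endogenous AI and expressed as percent of DMSO control. IC50 was estimated from semilog plots of three or more concentrations.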

IC50: 3.8 µM
Compound: CC(C)C[C@H](NC(=O)C[C@@H](O)C(Cc1ccccc1)NC(=O)[C@H](Cc1c[nH]cn1)NC[C@H](Cc1ccccc1)NC(=O)OC(C)(C)C)C(=O)NCc1ccccc1 (stereo partly specified)
